Test results as given in ChEMBL document CHEMBL3875218, “Bifunctional conjugates with potent inhibitory activity towards cyclooxygenase and histone deacetylase” (Bioorg Med Chem, 2017).

Assay: cells
Format: functional, cell-based
Details: Homo sapiens, LNCaP, 72 h

Cc1ccc(-c2cc(C(F)(F)F)nn2-c2ccc(S(N)(=O)=O)cc2)cc1 [CELECOXIB]
IC50: 32.6 µM
